Reference: EP4821921A1, “NITRIFICATION INHIBITOR AND USE THEREOF IN FERTILISERS CONTAINING AMMONIACAL NITROGEN, UREA NITROGEN OR BOTH” (dated 2026)

Experiments:
[1] = system: Nitrosomonas europaea bacteria; experiment: in vitro nitrification inhibition assay (pH of the medium)
Description: To investigate the nitrification inhibitory capacity of pulcherriminic acid in in vitro tests with Nitrosomonas europaea bacteria, the pH generated 24 and 48 hours after the application of pulcherriminic acid is measured. The generation of nitric acid by the Nitrosomonas europaea bacteria through the nitrification process causes a decrease in pH, so if the pH is maintained it means that nitrification is not taking place or that the nitrification process is inhibited.
The same is observed when pulcherriminic acid is added at a dose of 5.9 ppm. Therefore, pulcherriminic acid inhibits the nitrifying activity of Nitrosomonas europaea bacteria at a concentration of 5.9 ppm in in vitro inhibition assays. Table 1. Results of the in vitro pulcherriminic acid inhibition assay on Nitrosomonas europaea
In addition, similar to this in vitro assay, the inhibition capacity of the nitrification process of the pulcherriminic acid precursor, in other words, L-leucine-derived cyclic dipeptide (3), was analysed. […] Table 2. Results of the in vitro inhibition test of L-leucine-derived cyclic dipeptide in Nitrosomonas europaea

soil = experiment: in vivo inhibition test in soils (soil incubation with ammonium sulphate, nitrate formation)
Description: To analyse the nitrification inhibition activity of pulcherriminic acid in soil, an incubation test was carried out at different doses of nitrogen per hectare and with different inhibitor doses. Three different doses of nitrogen in the form of ammonium sulphate were applied to the same soil type, equivalent to: 100, 200 and 300 kg N/ha. For each dose of nitrogen, different doses of pulcherriminic acid were applied as a nitrification inhibitor, as well as the following controls: nitrogen-free control, nitrogen control and nitrogen controls in the presence of a commercial inhibitor (dicyandiamide). Inhibitor percentages relate to grammes of inhibitor per 100 g of added nitrogen. […] Table 3. Results of the in vivo inhibition test in soils

Nitrosospira = settings: grasslands with animal urine as NH4^+ substrate; cited from earlier work
[2] = system: Nitrosomonas europea bacteria; settings: in vitro conditions; cited from earlier work
[3] = cited from earlier work
[4] = 100 kgN/ha, inhibitor 5 %, day 0
[5] = 100 kgN/ha, inhibitor 5 %, day 5
[6] = 200 kgN/ha, inhibitor 5 %, day 0
[7] = 200 kgN/ha, inhibitor 5 %, day 5
[8] = 300 kgN/ha, inhibitor 5 %, day 0
[9] = 300 kgN/ha, inhibitor 5 %, day 5

`CC(C)Cc1c(O)[n+]([O-])c(CC(C)C)c(O)[n+]1[O-]` showed a pH ([1]; 5.9 ppm, Point 0 (t = 0)) of 7.91, a pH ([1]; 5.9 ppm, Point 1 (t = 24 h)) of 7.97 and a pH ([1]; 5.9 ppm, Point 2 (t = 48 h)) of 7.85. The “pH of the medium after 48 hours relative to that measured at the initial time” value ([1]; 11.8 ppm) was “does not decrease”, the pH ([1]; 11.8 ppm, Point 0 (t = 0)) was 7.88 and the pH ([1]; 11.8 ppm, Point 1 (t = 24 h)) was 7.99. The pH ([1]; 11.8 ppm, Point 2 (t = 48 h)) was 8.05, the “nitrifying activity of Nitrosomonas europaea bacteria” value ([1]; at a concentration of 5.9 ppm, in vitro inhibition assays) was “inhibits” and the nitrification process (soil; 10 % pulcherriminic acid applied, after 5 days) was “totally inhibited”. For the same compound, the “mg NO3^- / kg dry soil” value (soil; 100 kgN/ha, inhibitor 2.5 % (g per 100 g added nitrogen), day 0) was 3.82 mg NO3^- / kg dry soil, the “mg NO3^- / kg dry soil” value (soil; 100 kgN/ha, inhibitor 2.5 %, day 5) was 23.81 mg NO3^- / kg dry soil and the “mg NO3^- / kg dry soil” value (soil; [4]) was 2.88 mg NO3^- / kg dry soil. For the same compound, the “mg NO3^- / kg dry soil” value (soil; [5]) was 23.13 mg NO3^- / kg dry soil, the “mg NO3^- / kg dry soil” value (soil; 100 kgN/ha, inhibitor 10 %, day 0) was 3.26 mg NO3^- / kg dry soil and the “mg NO3^- / kg dry soil” value (soil; 100 kgN/ha, inhibitor 10 %, day 5) was 18.07 mg NO3^- / kg dry soil. The “inhibitory capacity compared with dicyandiamide” value (soil; 200 and 300 kg N/ha, same inhibitor dose) was “equal to the inhibitory capacity of dicyandiamide”, the “mg NO3^- / kg dry soil” value (soil; 200 kgN/ha, inhibitor 2.5 %, day 0) was 3.38 mg NO3^- / kg dry soil and the “mg NO3^- / kg dry soil” value (soil; 200 kgN/ha, inhibitor 2.5 %, day 5) was 29.83 mg NO3^- / kg dry soil. The “mg NO3^- / kg dry soil” value (soil; [6]) was 3.30 mg NO3^- / kg dry soil, the “mg NO3^- / kg dry soil” value (soil; [7]) was 25.46 mg NO3^- / kg dry soil and the “mg NO3^- / kg dry soil” value (soil; 200 kgN/ha, inhibitor 10 %, day 0) was 4.24 mg NO3^- / kg dry soil. For the same compound, the “mg NO3^- / kg dry soil” value (soil; 200 kgN/ha, inhibitor 10 %, day 5) was 1.22 mg NO3^- / kg dry soil, the “mg NO3^- / kg dry soil” value (soil; 300 kgN/ha, inhibitor 2.5 %, day 0) was 3.61 mg NO3^- / kg dry soil and the “mg NO3^- / kg dry soil” value (soil; 300 kgN/ha, inhibitor 2.5 %, day 5) was 31.18 mg NO3^- / kg dry soil. For the same compound, the “mg NO3^- / kg dry soil” value (soil; [8]) was 3.02 mg NO3^- / kg dry soil, the “mg NO3^- / kg dry soil” value (soil; [9]) was 17.42 mg NO3^- / kg dry soil and the “mg NO3^- / kg dry soil” value (soil; 300 kgN/ha, inhibitor 10 %, day 0) was 3.08 mg NO3^- / kg dry soil. For the same compound, the “mg NO3^- / kg dry soil” value (soil; 300 kgN/ha, inhibitor 10 %, day 5) was 5.98 mg NO3^- / kg dry soil and the “nitrate formation compared to the nitrogen control” value (soil; at most nitrogen doses, after 5 days) was “reduces nitrate formation”.

For `N#CNC(=N)N`, the “dose effective in inhibiting Nitrosospira activity” value (Nitrosospira) is given as 8 mg of DCD per kg of soil, the “mg NO3^- / kg dry soil” value (soil; [4]) is given as 3.87 mg NO3^- / kg dry soil and the “mg NO3^- / kg dry soil” value (soil; [5]) is given as 19.41 mg NO3^- / kg dry soil. The “mg NO3^- / kg dry soil” value (soil; [6]) was 3.78 mg NO3^- / kg dry soil, the “mg NO3^- / kg dry soil” value (soil; [7]) was 19.00 mg NO3^- / kg dry soil and the “mg NO3^- / kg dry soil” value (soil; [8]) was 6.99 mg NO3^- / kg dry soil. For the same compound, the “mg NO3^- / kg dry soil” value (soil; [9]) was 17.73 mg NO3^- / kg dry soil and the “concentrations at which the production of NO2^- can be significantly reduced” value [2] was 200-300 ppm.

For `Clc1cccc(C(Cl)(Cl)Cl)n1`, the solubility in water [3] is given as “insoluble in water”.

With `CC(C)C[C@@H]1NC(=O)[C@H](CC(C)C)NC1=O` (racemic) the pH ([1]; 100 ppm, Point 0 (t = 0)) was 7.46, the pH ([1]; 100 ppm, Point 1 (t = 24h)) was 5.87 and the pH ([1]; 100 ppm, Point 2 (t = 48h)) was 5.73. For the same compound, the pH ([1]; 200 ppm, Point 0 (t = 0)) was 7.52, the pH ([1]; 200 ppm, Point 1 (t = 24h)) was 5.99 and the pH ([1]; 200 ppm, Point 2 (t = 48h)) was 5.79. The pH ([1]; 1,000 ppm, Point 0 (t = 0)) was 7.46, the pH ([1]; 1,000 ppm, Point 1 (t = 24h)) was 6.42 and the pH ([1]; 1,000 ppm, Point 2 (t = 48h)) was 5.86. The pH ([1]; 2,000 ppm, Point 0 (t = 0)) was 7.51, the pH ([1]; 2,000 ppm, Point 1 (t = 24h)) was 6.80 and the pH ([1]; 2,000 ppm, Point 2 (t = 48h)) was 6.03. The “nitrifying activity of Nitrosomonas europaea bacteria” value ([1]; even at 2,000 ppm) was “does not inhibit”.
